Values quoted from earlier work as cited in US20160271257A1, “Low Molecular Weight Immune-Modulators As Adjuvants for Specific Immunotherapy” (PLS-DESIGN GMBH, priority 2013, published 2016).

Sequences of proteins named here, by UniProt entry; tags and fusion partners are left off. Residues count along the entry.
UniProt P12387, 23-1666: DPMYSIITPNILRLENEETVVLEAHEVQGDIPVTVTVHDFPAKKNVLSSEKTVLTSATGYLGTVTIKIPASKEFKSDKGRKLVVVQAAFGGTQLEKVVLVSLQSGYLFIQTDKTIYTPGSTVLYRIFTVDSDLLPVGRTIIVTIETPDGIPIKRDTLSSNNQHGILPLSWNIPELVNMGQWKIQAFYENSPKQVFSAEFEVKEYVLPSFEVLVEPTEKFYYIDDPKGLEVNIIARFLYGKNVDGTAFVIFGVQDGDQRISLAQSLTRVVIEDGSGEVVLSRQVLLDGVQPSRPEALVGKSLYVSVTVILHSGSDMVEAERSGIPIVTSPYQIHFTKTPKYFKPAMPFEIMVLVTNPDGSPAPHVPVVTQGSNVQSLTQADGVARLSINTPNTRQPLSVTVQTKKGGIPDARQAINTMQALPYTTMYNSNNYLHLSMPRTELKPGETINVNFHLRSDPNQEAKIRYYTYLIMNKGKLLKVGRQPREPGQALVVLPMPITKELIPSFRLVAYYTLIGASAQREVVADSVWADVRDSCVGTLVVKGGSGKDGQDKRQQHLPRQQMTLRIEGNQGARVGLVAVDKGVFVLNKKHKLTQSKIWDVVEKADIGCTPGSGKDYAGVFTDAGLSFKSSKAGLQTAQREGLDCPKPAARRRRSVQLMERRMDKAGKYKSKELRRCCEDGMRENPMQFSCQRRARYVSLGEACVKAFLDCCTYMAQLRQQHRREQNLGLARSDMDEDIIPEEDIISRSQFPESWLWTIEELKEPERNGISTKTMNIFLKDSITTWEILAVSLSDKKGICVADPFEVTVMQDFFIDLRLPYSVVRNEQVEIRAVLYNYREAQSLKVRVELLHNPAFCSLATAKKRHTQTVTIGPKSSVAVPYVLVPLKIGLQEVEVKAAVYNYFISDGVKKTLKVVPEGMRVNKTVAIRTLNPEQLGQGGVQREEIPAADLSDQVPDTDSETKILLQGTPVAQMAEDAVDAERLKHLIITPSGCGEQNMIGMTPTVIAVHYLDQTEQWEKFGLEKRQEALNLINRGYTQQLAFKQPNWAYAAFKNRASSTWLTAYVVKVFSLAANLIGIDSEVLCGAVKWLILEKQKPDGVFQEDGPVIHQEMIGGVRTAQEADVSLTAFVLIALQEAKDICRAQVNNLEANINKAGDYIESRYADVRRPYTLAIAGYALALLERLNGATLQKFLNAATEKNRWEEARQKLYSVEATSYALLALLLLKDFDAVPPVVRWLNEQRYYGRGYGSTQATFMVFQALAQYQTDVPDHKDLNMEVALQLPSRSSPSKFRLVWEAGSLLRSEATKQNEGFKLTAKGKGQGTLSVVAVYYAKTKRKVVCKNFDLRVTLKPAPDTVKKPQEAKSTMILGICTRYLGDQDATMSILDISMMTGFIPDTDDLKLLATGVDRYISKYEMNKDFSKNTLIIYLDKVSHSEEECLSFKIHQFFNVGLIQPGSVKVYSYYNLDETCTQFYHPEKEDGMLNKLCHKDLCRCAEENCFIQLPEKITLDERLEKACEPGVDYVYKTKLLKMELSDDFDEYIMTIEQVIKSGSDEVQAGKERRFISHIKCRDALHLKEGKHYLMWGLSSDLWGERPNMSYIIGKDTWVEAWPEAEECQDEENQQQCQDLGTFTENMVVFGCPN

Tests used:
C3 [1] = target: T1, C3 (Cavia porcellus, UniProt P12387); conditions: sera from guinea pigs; read-out: IC50 of haemolytic activity
T1 construct: from tissue; host or cells: guinea pig serum (value cited from Sahu et al., 2003)

C3 [2] = target: T2, C3 (Mus musculus, UniProt P01027); conditions: sera from mice; read-out: IC50 of haemolytic activity
T2 construct: from tissue; host or cells: mouse serum (value cited from Sahu et al., 2003)
T2 sequence (P01027 25-666 limits assumed): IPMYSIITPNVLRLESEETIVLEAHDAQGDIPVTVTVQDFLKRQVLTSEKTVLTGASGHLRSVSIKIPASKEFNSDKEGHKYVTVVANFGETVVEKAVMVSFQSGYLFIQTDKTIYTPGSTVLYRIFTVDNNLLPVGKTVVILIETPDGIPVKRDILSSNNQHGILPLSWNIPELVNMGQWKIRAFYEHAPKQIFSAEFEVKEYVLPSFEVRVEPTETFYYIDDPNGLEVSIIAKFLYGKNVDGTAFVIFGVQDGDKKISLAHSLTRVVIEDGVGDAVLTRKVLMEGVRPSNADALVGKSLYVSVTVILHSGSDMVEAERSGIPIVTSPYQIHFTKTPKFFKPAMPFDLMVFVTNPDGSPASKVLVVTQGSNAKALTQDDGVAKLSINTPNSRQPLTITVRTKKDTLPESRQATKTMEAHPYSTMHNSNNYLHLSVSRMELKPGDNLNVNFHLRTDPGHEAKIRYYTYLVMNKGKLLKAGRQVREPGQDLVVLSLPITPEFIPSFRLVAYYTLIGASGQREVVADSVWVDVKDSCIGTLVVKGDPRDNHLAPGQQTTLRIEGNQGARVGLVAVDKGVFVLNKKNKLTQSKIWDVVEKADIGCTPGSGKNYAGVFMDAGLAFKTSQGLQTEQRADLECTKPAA

With CC[C@H](C)[C@H](N)C(=O)N[C@H]1CSSC[C@@H](C(=O)N[C@H](C(N)=O)[C@@H](C)O)NC(=O)[C@H](CCCN=C(N)N)NC(=O)[C@H](Cc2cnc[nH]2)NC(=O)[C@H](Cc2cnc[nH]2)NC(=O)CNC(=O)[C@H](Cc2c[nH]c3ccccc23)NC(=O)[C@H](CC(=O)O)NC(=O)[C@H](CCC(N)=O)NC(=O)[C@H](C(C)C)NC(=O)[C@H](C(C)C)NC1=O [compstatin] as the compound, how does the IC50 (C3 [1]) read?
Its IC50 is over 600 µM.

And the IC50 (C3 [2])?
The IC50 was over 600 µM.
